Columns and labels:
[1] = tested on: AxCT mask27 EGFR EH104 L062 version 1
[2] = tested on: AxCT mask27 EGFR EH104 L058 version 1
[3] = tested on: AxCT mask27 EGFR EH104 L059 version 1
[4] = tested on: AxCT mask27 EpCAM H90.2 L059 version 1
[5] = tested on: AxCT mask27 EGFR EH104 L043 version 1
[6] = tested on: AxCT mask27 EpCAM H90 L001 version 1
[7] = tested on: AxCT mask27 EpCAM H90.2 L041 version 1
[8] = tested on: AxCT mask27 EpCAM H90.2 L043 version 1
[9] = tested on: AxCT mask27 EpCAM H90.2 L064 version 1
[10] = tested on: AxCT mask27 EGFR EH104 L040 version 1
[11] = tested on: AxCT mask27 EpCAM H90.2 L076 version 1
[12] = tested on: AxCT mask27 EGFR EH104 L067 version 1
[13] = tested on: AxCT mask27 EpCAM H90.2 L075 version 1
[14] = tested on: AxCT mask27 EGFR EH104 L072 version 1
[15] = tested on: AxCT mask27 EpCAM H90.2 L073 version 1
[16] = tested on: AxCT mask27 EGFR EH104 L041 version 1
[17] = tested on: AxCT mask27 EGFR EH104 L066 version 1
[18] = tested on: AxCT mask27 EpCAM H90.2 NCLV
[19] = tested on: AxCT mask27 EpCAM H90.2 L063 version 1
[20] = tested on: AxCT mask27 EGFR EH104 L069 version 1
[21] = tested on: AxCT mask27 EGFR EH104 L061 version 1
[22] = tested on: AxCT mask27 EGFR EH104 L054 version 1
[23] = tested on: AxCT mask27 EGFR EH104 L073 version 1
[24] = tested on: AxCT mask27 EpCAM H90.2 L040 version 1
[25] = tested on: AxCT mask27 EGFR EH104 L055 version 1
[26] = tested on: AxCT mask27 EGFR EH104 L063 version 1
[27] = tested on: AxCT mask27 EGFR EH104 L064 version 1
[28] = tested on: AxCT mask27 EGFR EH104 L060 version 1
[29] = tested on: AxCT mask27 EGFR EH104 L056 version 1
[30] = tested on: AxCT mask27 EGFR EH104 L057 version 1
[31] = tested on: AxCT mask27 EGFR EH104 L065 version 1
[32] = tested on: AxCT mask27 EpCAM H90.2 L060 version 1
[33] = tested on: AxCT mask27 EGFR EH104 L068 version 1
[34] = tested on: AxCT mask27 EGFR EH104 L001 version 1
[35] = tested on: AxCT mask27 EGFR EH104 L070 version 1
[36] = tested on: AxCT mask27 EpCAM H90.2 L061 version 1
[37] = tested on: AxCT mask27 EGFR EH104 L071 version 1

Substance	Percent cleavage [1] [%]	Percent cleavage [2] [%]	Percent cleavage [3] [%]	Percent cleavage [4] [%]	Percent cleavage [5] [%]	Percent cleavage [6] [%]	Percent cleavage [7] [%]	Percent cleavage [8] [%]	Percent cleavage [9] [%]	Percent cleavage [10] [%]	Percent cleavage [11] [%]	Percent cleavage [12] [%]	Percent cleavage [13] [%]	Percent cleavage [14] [%]	Percent cleavage [15] [%]	Percent cleavage [16] [%]	Percent cleavage [17] [%]	Percent cleavage [18] [%]	Percent cleavage [19] [%]	Percent cleavage [20] [%]	other results
Urokinase-type Plasminogen Activator	13	10	9	16	40	0	43	61	0	22	0	0	0	0	0	28	0	0	19	0	Percent cleavage [21]: 6%; Percent cleavage [22]: 7%; Percent cleavage [23]: 0%; Percent cleavage [24]: 39%; Percent cleavage [25]: 24%; Percent cleavage [26]: 13%; Percent cleavage [27]: 0%; Percent cleavage [28]: 0%; Percent cleavage [29]: 8%; Percent cleavage [30]: 0%; Percent cleavage [31]: 0%; Percent cleavage [32]: 9%; Percent cleavage [33]: 0%; Percent cleavage [34]: 0%; Percent cleavage [35]: 0%; Percent cleavage [36]: 11%; Percent cleavage [37]: 0%
MMP-13	56	47	49	82	22	95	20	34	45	30	35	33	0	56	31	14	21	0	34	51	Percent cleavage [21]: 43%; Percent cleavage [22]: 29%; Percent cleavage [23]: 18%; Percent cleavage [24]: 43%; Percent cleavage [25]: 61%; Percent cleavage [26]: 23%; Percent cleavage [27]: 24%; Percent cleavage [28]: 13%; Percent cleavage [29]: 26%; Percent cleavage [30]: 31%; Percent cleavage [31]: 53%; Percent cleavage [32]: 18%; Percent cleavage [33]: 52%; Percent cleavage [34]: 65%; Percent cleavage [35]: 11%; Percent cleavage [36]: 77%; Percent cleavage [37]: 37%

— patent US20240336909
